Laboratory results as given in PubChem BioAssay AID583 (Sanford-Burnham Center for Chemical Genomics, 2007).
The entries are a selection whose mix differs from that of the whole data set. Activity calls are given as the source filed them. Rule as the data show it: active = displacement above about 50%; inactive = the rest.

Protein sequences, listed by entry. Tags and fused reporters are not part of them.
UniProt P0DMV8, whole entry: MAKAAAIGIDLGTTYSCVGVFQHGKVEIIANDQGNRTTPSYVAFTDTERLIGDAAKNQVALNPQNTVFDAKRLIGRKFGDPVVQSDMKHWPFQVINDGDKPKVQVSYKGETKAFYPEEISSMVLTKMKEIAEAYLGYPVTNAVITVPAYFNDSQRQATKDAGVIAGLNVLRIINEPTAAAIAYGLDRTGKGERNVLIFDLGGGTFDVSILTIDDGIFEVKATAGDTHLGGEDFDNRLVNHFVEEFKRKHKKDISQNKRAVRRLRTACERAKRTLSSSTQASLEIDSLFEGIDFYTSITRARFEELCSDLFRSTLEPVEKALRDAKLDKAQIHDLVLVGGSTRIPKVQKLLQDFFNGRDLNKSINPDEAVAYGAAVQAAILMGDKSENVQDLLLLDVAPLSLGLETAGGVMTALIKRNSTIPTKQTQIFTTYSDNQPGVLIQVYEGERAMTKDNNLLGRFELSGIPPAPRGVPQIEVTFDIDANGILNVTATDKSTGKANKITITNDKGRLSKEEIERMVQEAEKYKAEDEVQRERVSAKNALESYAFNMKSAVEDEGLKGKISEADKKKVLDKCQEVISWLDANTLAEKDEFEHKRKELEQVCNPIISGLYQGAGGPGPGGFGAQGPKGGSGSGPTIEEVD

target: Heat shock 70 kDa protein 1A (Homo sapiens) (UniProt P0DMV8); test: small molecules displacing fluorescent ligand from Hsp70 – biochemical, fluorescence polarization, primary screen (AID 583); settings: Hsp70 fluorescence polarization probe displacement, mP; at 20 µM; stronger effect = higher value;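 also: plate controls were vehicle for no effect and reference ligand for full effect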

| Structure (SMILES) | displacement |
| --- | --- |
| CCc1ccc(OP(C)(=O)O)cc1 | inactive: -1.9% |
